# According to US20250282834A1, “PEPTIDE INHIBITORS FOR CHROMODOMAIN HELICASE DNA BINDING PROTEIN 4 (CHD4)” (THE REGENTS OF THE UNIVERSITY OF CALIFORNIA, priority 2022, published 2025):
# Columns and labels:
# [1] = system: BCBL-1 cells; assay: PEL xenograft mouse model; assay type: in vivo, NRG mice
# [2] = system: normal PBMCs; assay: MTT cell viability assay, PBMC; assay type: cell-based; conditions: 24 hours; compared with monocytic leukemia cell lines
# [3] = system: primary effusion lymphoma (PEL) cells (BC3, BCBL-1); assay type: cell-based
# Procedure: FIG. 4 VGN73 inhibits cell growth on various cancer cell types and induces apoptosis and autophagy in BC3 cells. FIG. 4a. MT assays were performed with the indicated cell lines treated with various VGN73 and mutant peptide concentrations for 24 hours. The OD of mock-treated samples were set as 100%, and OD from detergent-treated cells were set as 0%. Mean percentage viability±SD was calculated for each treatment (n=3 samples/treatment). FIG. 4b. VGN73 induces apoptosis. BC3 cells were incubated with of VGN73 (18 μM) for 0, 1, 4, and 24 hours, followed by measurements of percentage apoptosis induction (Annexin V staining) by flow cytometry. Median percentage apoptosis was calculated for each treatment time (n=3 samples/treatment time) (a). […] Cleaved caspase 3 were calculated by normalizing to untreated sample, and untreated sample set as 100% (b). […] Median percentage apoptosis was calculated for each treatment time (n=3 samples/treatment) (a). […] ratios were calculated by normalizing to untreated sample, and untreated sample set as 100% (b). […] Cell viability were determined by MTT assay (n=5 samples/treatment). *; p<0.05. **; p<0.01 versus the control group, #; p<0.05 versus the Z-VAD-FMK group.
# The cytotoxic activity of VGN73 and mutant peptide were measured using the MTT assay. […] The optical densities (ODs) were measured at 570 nm with a Benchmark Plus Microplate Spectrophotometer (Bio-Rad). […]
# [4] = system: HaCaT cells, immortalized keratinocytes; assay: MTT cell viability assay, HaCaT; assay type: cell-based; conditions: 24 hours
# [5] = system: cleaved caspase 3, LC3II and LC3I; assay: Western blot of apoptosis and autophagy markers in BC3 cells; assay type: cell-based; conditions: 18 μM, 24 hours
structure (smiles),measurement,setting,value
"CC[C@H](C)[C@H](NC(=O)[C@@H](NC(=O)[C@H](C)NC(=O)[C@H](Cc1c[nH]cn1)NC(=O)[C@H](CCCCN)NC(=O)[C@H](Cc1c[nH]c2ccccc12)NC(=O)CCNC(=O)[C@H](CCCNC(=N)N)NC(=O)[C@H](CCCNC(=N)N)NC(=O)[C@H](CCCNC(=N)N)NC(=O)[C@H](CCCN)NC(=O)[C@H](CCCNC(=N)N)NC(=O)[C@H](CCCNC(=N)N)NC(=O)[C@H](CCCCN)NC(=O)[C@H](CCCCN)NC(=O)[C@H](N)CCCNC(=N)N)C(C)C)C(=O)N[C@@H](Cc1ccccc1)C(=O)N[C@@H](Cc1c[nH]c2ccccc12)C(=O)NCC(=O)N[C@@H](CC(N)=O)C(=O)N[C@@H](CC(=O)O)C(=O)N1CCC[C@H]1C(=O)N[C@@H](Cc1ccc(O)cc1)C(=O)NCC(=O)N[C@@H](CC(C)C)C(=O)N[C@@H](CCCCN)C(=O)N[C@@H](CCCCN)C(=O)O [VGN73, (d-Arg}KKRR{ORN}RRR{β-Ala}WKHAVIFWGNDPYGLKK]",ascites fluid produced,"[1]; 10 mg/kg i.p. every other day, Day 19",very little ascites fluid was produced
same,BCBL-1 growth by bioluminescence imaging,"[1]; 10 mg/kg i.p. every other day, days 14 and 19",substantially inhibited
same,total number of PEL cells in ascites fluid,"[1]; Day 19, flow cytometry",inhibition of PEL growth
same,CHD4 and LANA signals in PEL cells from xenograft tumors,[1]; IFA of ascites cells,lowered both CHD4 and LANA signals
same,CD38 gene expression in recovered PEL cells,"[1]; RT-qPCR, ascites cells",significantly downregulated; also recorded: significantly decreased
same,CD19 gene expression in recovered PEL cells,"[1]; RT-qPCR, ascites cells, did not meet statistical significance",slightly increased
same,side effects in mice,[1]; therapeutic dose,no measurable side effects
same,sensitivity of normal PBMCs (MTT),[2],relatively resistant; also recorded: not very sensitive
same,cancer cell death in vitro tissue culture,[3],effectively induces cancer cell death
same,PEL cell growth (MTT),"[3]; 0-64 μM, 24 hours",inhibited PEL cell growth in a dose-dependent manner
same,sensitivity of HaCaT cells (MTT),[4],resistant; also recorded: not very sensitive
same,apoptosis and autophagy markers by western blotting,[5],increasing of apoptosis and autophagy markers

# Entries after “also recorded” stand apart in the source; their conditions may differ.
